This is an account of results in ChEMBL document CHEMBL3217567, “Differential activation of soluble guanylate cyclase by a series of aryl disulfanyl dinitrate esters” (Medchemcomm, 2014).

As usually defined, the pEC50 is the EC50 on a negative log10 scale, so that one unit is a factor of ten.

The nature of assay [1]: Activation of Sprague-Dawley rat soluble guanylate cyclase after 10 mins.
The nature of assay [2]: Activation of Sprague-Dawley rat soluble guanylate cyclase after 10 mins in presence of cysteine.

Molecules are shown by their SMILES. pEC50: −log10 of the molar value.

As to `O=[N+]([O-])OCC(CS)O[N+](=O)[O-]` (configuration not stated), the pEC50 in assay [1] was 4.37; in assay [2], 4.15.
